From ChEMBL document CHEMBL1126893, “Synthesis and CLOGP correlation of imidooxy anticonvulsants” (J Med Chem, 1993)

Species: Mus musculus
Test: Protective index (TD50/ED50) value in MES test in mice
Format: functional
Outline: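 Phase II quantification in mice after ip dosing. ED50 (scMet or MES) measured at the time of peak effect. TD50 (rotorod neurologic deficit) measured at the time of peak neurologic deficit. Medians and 95% confidence limits by the Litchfield-Wilcoxon method. Protective index = TD50/ED50. Time of peak effect determined in the MES or scMet test.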

NC(=O)N1c2ccccc2C=Cc2ccccc21 [CARBAMAZEPINE]
PI: 8.1
